# Species: Homo sapiens
# Assay: Selectivity ratio of Ki for displacement of [3H]-EYF from monoclonal human NPFF2 receptor expressed in CHO cells to Ki for displacement of [3H]NPVF from monoclonal human NPFF1 receptor expressed in CHO cells
smiles,measurement,value
O=C(CN1CCC(Cc2ccccc2)CC1)NCC1(Nc2cccc3ccccc23)CCN(Cc2ccccc2)CC1,Ratio Ki,> 15
